The target of this experiment is T1, Recombinant human MPL (human, UniProt P40238 26-491, limits assumed).
T1 construct: also called hu-mpl; hu-MPL
T1 sequence (looked up): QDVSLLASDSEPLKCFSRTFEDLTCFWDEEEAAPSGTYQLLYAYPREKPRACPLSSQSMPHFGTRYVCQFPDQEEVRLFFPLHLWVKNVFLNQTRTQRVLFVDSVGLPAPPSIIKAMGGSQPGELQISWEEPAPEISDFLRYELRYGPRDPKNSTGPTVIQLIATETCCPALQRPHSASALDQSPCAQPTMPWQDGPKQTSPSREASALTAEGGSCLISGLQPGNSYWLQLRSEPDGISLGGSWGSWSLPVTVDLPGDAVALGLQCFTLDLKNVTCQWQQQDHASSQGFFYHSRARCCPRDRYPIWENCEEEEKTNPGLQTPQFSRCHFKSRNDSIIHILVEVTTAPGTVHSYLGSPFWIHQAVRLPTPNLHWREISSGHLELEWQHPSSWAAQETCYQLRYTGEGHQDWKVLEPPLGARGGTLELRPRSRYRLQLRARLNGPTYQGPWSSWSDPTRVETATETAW
The experiment in a line: SPR (BIACORE 3000), hu-mpl amine-coupled on CM5 chip, peptide injected 0.78-100 nM.

B1: TMP1 (22-residue benchmark peptide) (peptide)
peptide: SAQGIEGPTLRQWLAARALETV
notes: also called TMP01
With B1, the Kd (commonly the equilibrium constant for the complex coming apart) was 5.4 nM.

The values above are taken from US20110229472A1 (Amgen, published 2011).
